Assay results from US20160115186A1, “PHOSPHORIC ACID/PHOSPHONIC ACID DERIVATIVES AND MEDICINAL USES THEREOF” (priority 2013, published 2016).

Experiments:
[1] = Evaluation of liver targeting property (active drug in liver and blood, HPLC-MS/MS); type: in vivo, Balb/C mice; conditions: intragastric, dose equimolar to fosfomycin 200 mg/kg, active drug (free phosphonic or phosphoric acid)
Text: Instrument: Finnigan Co. USA, TSQ Quantum-type liquid chromatography-mass spectrometry (LC/MS/MS), consisting of Finnigan Surveyor LC pump. Surveyor AS automatic sampler, electrospray ionization source (ESI) and triple tandem mass spectrometer. The control software is X calibur 1.4, Lcquan 2.0 data processing system is used for mass spectrometry data analysis. The chromatography column is Discovery ODS column (250 mm×4.6 mm, 5 μm), C18 guard column (4 mm×3.0 mm), the mobile phase is methanol-water-formic acid (10-30:90-70:0.5, V/V/V), the flow rate is 0.7 ml/min; the sample amount is 20 μL; and the column temperature is room temperature.

DHBV = type: in vivo, sheldrakes; conditions: serum DHBV DNA, 50 mg/kg intragastric once a day for 14 days
Procedure: The sheldrakes infected by vertical transmission and being positive in DHBV DNA detection were grouped randomly, 5/group. Water and different doses of the compound to be tested were intragastrically administrated, respectively, once a day, for 14 days. Venous blood samples were collected pre-dosing, at day 14 of dosing and at day 7 after drug withdrawal, the serum DHBV DNA content was measured using external standard TaqMan real-time fluorescence PCR method, and the inhibition ratio was calculated, as compared to the solvent group.

in vitro = type: cell-based; conditions: human; Hep G 2.2.15 cells, MTT, day 3 post-dosing
Procedure: Hep G 2.2.15 cells were inoculated in a 96-well plate (with cell number being 5.5×10^4) to continually cultivate for 3 days, new culture solutions containing different concentrations of drugs were added, and 3 wells were provided in parallel; at day 3 post-dosing, MTT was added until 7.5 mg/ml, and continued to cultivate for 2 hours, the supernate was discarded, isopropanol containing 10% […] was added, 120 μl/well, and 0.4 μl/well was further added.

Compound | Cliver/Cblood ([1]; 1 h post-dosing) | Cliver/Cblood ([1]; 6 h post-dosing) | Inhibition ratio (%) Day 14 of dosing (DHBV) [%] | Inhibition ratio (%) day 7 after drug withdrawal (DHBV) [%] | CC50 at 3 days (in vitro) [µM]
CC(C)OC(=O)[C@H](C)N[P@](=O)(CO[C@H](C)Cn1cnc2c(N)ncnc21)Oc1ccccc1.O=C(O)/C=C/C(=O)O [GS-7340, 9-[(R)-2-[[(S)-[[(S)-1-(isopropoxycarbonyl)-ethyl]-amino]-phenoxylphosphonyl]-methoxyl]-propyl]-adenine fumarate, reference compound] | 6.12 | 8.46 | 85.2 | 23.1 | –
Nc1ncnc2c1ncn2CCOCP(=O)(Oc1ccccc1)Oc1ccccc1 [i-1, 9-[[bis-(phenoxyl)-phosphonyl-methoxyl]-ethyl]-adenine, reference compound] | – | – | – | – | > 200
